Source: BindingDB's records for 20430631
pKi: −log10 of the molar value.

Chains of the proteins cited; added tags and fusions are not shown. Residues count along the entry.
UniProt P00915, 2-261 limits assumed: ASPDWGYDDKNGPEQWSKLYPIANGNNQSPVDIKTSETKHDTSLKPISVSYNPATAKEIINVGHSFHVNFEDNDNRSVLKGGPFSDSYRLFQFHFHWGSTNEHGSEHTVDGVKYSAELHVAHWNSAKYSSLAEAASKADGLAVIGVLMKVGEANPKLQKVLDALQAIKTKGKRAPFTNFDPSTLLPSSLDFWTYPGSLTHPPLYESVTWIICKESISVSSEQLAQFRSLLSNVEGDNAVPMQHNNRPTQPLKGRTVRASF

Assays:
Carbonic anhydrase 1 = Carbonic anhydrase 1 (Homo sapiens, UniProt P00915); assay: Uncompetitive inhibition of human carbonic anhydrase 1 esterase activity by Lineweaver-Burke plot analysis
Carbonic anhydrase 2 [1] = molecular target: T1, Carbonic anhydrase 2 (Homo sapiens, UniProt P00918); assay: Competitive inhibition of human carbonic anhydrase 2 esterase activity by Lineweaver-Burke plot analysis
Carbonic anhydrase 2 [2] = molecular target: T1, Carbonic anhydrase 2; assay: Uncompetitive inhibition of human carbonic anhydrase 2 esterase activity by Lineweaver-Burke plot analysis

| SMILES | pKi (Carbonic anhydrase 1) | pKi (Carbonic anhydrase 2 [1]) | pKi (Carbonic anhydrase 2 [2]) |
| --- | --- | --- | --- |
| O=[N+]([O-])O[C@H]1C[C@H](O[N+](=O)[O-])[C@@H](O)C[C@@H]1O | 1.71 | 3.76 |  |
| O=[N+]([O-])O[C@H]1CC[C@@H](O[N+](=O)[O-])[C@H](O)[C@@H]1O | 1.62 |  | 3.57 |
| O=[N+]([O-])O[C@H]1C[C@H](O)[C@@H](O[N+](=O)[O-])C[C@@H]1O | 1.70 | 3.62 |  |
